# Data published in publication PMC8976226 (Mutagenesis, 2022).
# Where a name gives a salt, the structure may show the parent alone.
# Tested on: Salmonella typhimurium, Escherichia coli tester strains
# Assay: Bacterial reverse mutation test
# Format: cell-based
smiles,measurement,setting,value
COc1ccc(COC=O)cc1 [anisyl formate],Ames assay result,Salmonella typhimurium strain TA 100 without metabolic activation,positive
same,Ames assay result,overall outcome,positive
